Reference: PubChem BioAssay AID1416 (The Scripps Research Institute Molecular Screening Center, 2008)
The list shows a part of the results, in another mix than the full data. Calls of active or inactive are those of the source.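 Rule for the calls: active = inhibition above the mean inhibition of all tested compounds plus 3 SD, set separately per screening campaign (cut at about 2.9% in these data); inactive = the rest.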

Amino acid sequences for entries named in this document (tags omitted).
UniProt Q9NZJ5, whole entry: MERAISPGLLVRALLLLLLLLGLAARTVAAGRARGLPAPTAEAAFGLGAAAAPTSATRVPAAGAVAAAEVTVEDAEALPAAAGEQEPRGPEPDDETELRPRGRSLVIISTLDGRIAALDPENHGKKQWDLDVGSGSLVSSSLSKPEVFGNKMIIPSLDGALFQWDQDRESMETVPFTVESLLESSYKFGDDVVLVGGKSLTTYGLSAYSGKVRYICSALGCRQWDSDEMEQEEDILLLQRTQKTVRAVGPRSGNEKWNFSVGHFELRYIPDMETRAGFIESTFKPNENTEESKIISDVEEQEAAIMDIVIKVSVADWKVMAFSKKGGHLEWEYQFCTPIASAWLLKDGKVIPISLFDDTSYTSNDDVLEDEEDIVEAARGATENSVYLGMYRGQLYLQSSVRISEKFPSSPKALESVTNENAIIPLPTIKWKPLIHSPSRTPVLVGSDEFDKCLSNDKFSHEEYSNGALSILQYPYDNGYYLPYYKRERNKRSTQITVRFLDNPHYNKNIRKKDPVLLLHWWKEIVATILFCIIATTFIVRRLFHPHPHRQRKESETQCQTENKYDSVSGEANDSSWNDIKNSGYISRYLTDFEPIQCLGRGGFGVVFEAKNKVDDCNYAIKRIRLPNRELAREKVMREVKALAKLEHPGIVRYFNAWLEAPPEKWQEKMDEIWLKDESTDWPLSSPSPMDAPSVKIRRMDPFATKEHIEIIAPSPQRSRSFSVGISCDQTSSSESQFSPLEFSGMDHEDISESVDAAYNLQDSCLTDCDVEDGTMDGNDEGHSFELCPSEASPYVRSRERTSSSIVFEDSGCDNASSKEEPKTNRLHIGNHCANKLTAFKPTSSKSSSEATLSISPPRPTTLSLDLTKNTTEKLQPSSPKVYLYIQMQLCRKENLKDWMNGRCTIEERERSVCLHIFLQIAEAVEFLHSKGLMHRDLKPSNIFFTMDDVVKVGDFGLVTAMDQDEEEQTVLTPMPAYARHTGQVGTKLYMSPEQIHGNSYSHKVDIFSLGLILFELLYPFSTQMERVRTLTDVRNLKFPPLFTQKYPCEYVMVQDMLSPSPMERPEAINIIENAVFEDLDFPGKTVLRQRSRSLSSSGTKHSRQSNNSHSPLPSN

Biological target: Eukaryotic translation initiation factor 2-alpha kinase 3 (Homo sapiens) (UniProt Q9NZJ5)
Assay: SEAP translation reporter rise after PERK-DD activation – CHO PERK-DD cells, SEAP luminescence, HTS, PERK inhibitor project, primary screen (AID 1416);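 note: PERK kinase domain activated by AP20187 dimerizer at 100 nM; 0% = DMSO with dimerizer and 100% = rapamycin at 8.4 µM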
Conditions: CHO PERK-DD fusion, at 5.6 µM, active compounds read high

Compound	inhibition
CCOC(=O)C(CC)C1=NC(C)(C)Cc2ccccc21.O=[N+]([O-])c1cc([N+](=O)[O-])c(O)c([N+](=O)[O-])c1 (stereo not drawn)	inactive: 0.75%
O=[N+]([O-])c1cc([N+](=O)[O-])c(Nc2nnnn2CCO)c([N+](=O)[O-])c1	inactive: 0.39%
CN1CCCCC1COC(=O)C1(O)c2ccccc2CCc2ccccc21 (stereo not drawn)	inactive: -0.08%
COc1ccccc1OP(C)(=O)Nc1c(C)cccc1C (stereo not drawn)	inactive: 0.24%
CCCOc1ccc(NP(C)(=O)Oc2ccc(Cl)cc2)cc1 (stereo not drawn)	inactive: -0.1%
CP(=O)(Nc1ccc(SC(F)(F)F)cc1)Oc1ccccc1 (stereo not drawn)	inactive: 0.88%
O=[N+]([O-])c1cc([N+](=O)[O-])c(-n2nnc3ccccc32)c([N+](=O)[O-])c1	inactive: 0.92%
Cc1nc2ccc3ccccc3c2s1.O=[N+]([O-])c1cc([N+](=O)[O-])c(O)c([N+](=O)[O-])c1	inactive: 1.79%
COc1ccccc1OP(C)(=O)Nc1cccc(Br)c1 (stereo not drawn)	inactive: 0.09%
Cc1cc(C)cc(OP(C)(=O)Nc2ccc(C)cc2C)c1 (stereo not drawn)	inactive: -1.14%
CCOC(=O)c1ccc(NP(C)(=O)Oc2cc(C)cc(C)c2)cc1 (stereo not drawn)	inactive: -0.49%
Cc1cc(C)cc(OP(C)(=O)Nc2ccccn2)c1 (stereo not drawn)	inactive: 1.01%
CP(=O)(Nc1cccc(Br)c1)Oc1ccccc1 (stereo not drawn)	inactive: 0.51%
Cc1ccc(C)c(NP(C)(=O)Oc2ccccc2)c1 (stereo not drawn)	inactive: 0.19%
O=C(O)c1cccc(Nc2c([N+](=O)[O-])cc([N+](=O)[O-])cc2[N+](=O)[O-])c1	inactive: -0.57%
CC1=NCCc2c1[nH]c1ccccc21.O=[N+]([O-])c1cc([N+](=O)[O-])c(O)c([N+](=O)[O-])c1	inactive: -0.65%
Cc1cccc(C)c1OP(C)(N)=O (stereo not drawn)	inactive: -0.17%
CC(C)(C)c1ccc(OP(C)(=O)Nc2ccc(SC(F)(F)F)cc2)cc1 (stereo not drawn)	inactive: 1.56%
O=[N+]([O-])c1ccc2c(c1)C=Nc1ccccc1O2	inactive: 1.17%
CCOC(=O)c1ccc(NP(C)(=O)Oc2ccccc2)cc1 (stereo not drawn)	inactive: 0.2%
Cc1ccc(NP(C)(=O)Oc2ccccc2)c(C)c1 (stereo not drawn)	inactive: 0.24%

Compound	inhibition
COc1ccccc1OP(C)(=O)Nc1ccc(C)cc1 (stereo not drawn)	inactive: -0.17%
COc1ccc(OP(C)(=O)Nc2cccc(F)c2)cc1 (stereo not drawn)	inactive: 0.8%
COc1ccccc1OP(C)(=O)Nc1cc(Cl)ccc1C (stereo not drawn)	inactive: -0.54%
Cc1cc(C)cc(OP(C)(N)=O)c1 (stereo not drawn)	inactive: 0.44%
CCN(CC)CCCOC(=O)C(O)(c1ccccc1)c1ccccc1	inactive: 0.84%
CP(=O)(Oc1ccccc1)OC(c1ccccc1)C(F)(F)F (stereo not drawn)	inactive: 0.01%
CP(=O)(Nc1ccc(SC(F)(F)F)cc1)Oc1ccc(Cl)cc1 (stereo not drawn)	inactive: -0.25%
Cc1cccc(C)c1OP(C)(=O)Nc1ccc(SC(F)(F)F)cc1 (stereo not drawn)	inactive: 0.72%
Cc1cc(C)cc(OP(C)(=O)Nc2ccc(SC(F)(F)F)cc2)c1 (stereo not drawn)	inactive: -0.16%
CP(=O)(NC(=O)Nc1ccccc1)Oc1ccccc1 (stereo not drawn)	inactive: 1.65%
CCc1ccc(OP(C)(=O)N2CCN(c3ccc([N+](=O)[O-])cc3)CC2)cc1 (stereo not drawn)	inactive: -0.89%
CCOP(C)(=S)SCC(=O)NC(C)C(=O)O (stereo not drawn)	inactive: -0.54%
CCOC(=O)c1ccc(NP(C)(=O)Oc2ccc(OC)cc2)cc1 (stereo not drawn)	inactive: 0.99%
CP(=O)(Nc1ccccn1)Oc1ccc(Cl)cc1 (stereo not drawn)	inactive: 0.51%
CP(=S)(Nn1cnnc1)Oc1ccccc1 (stereo not drawn)	inactive: 0.35%
COc1ccccc1OP(C)(=O)Nc1ccccc1 (stereo not drawn)	inactive: 1.87%
CP(=O)(Nc1ccccc1Br)Oc1ccccc1 (stereo not drawn)	inactive: 1.56%
CP(=O)(OC12CC3CC(CC(C3)C1)C2)OC12CC3CC(CC(C3)C1)C2	inactive: -0.67%
CCOC(=O)c1ccc(NP(C)(=O)Oc2ccc(Cl)cc2)cc1 (stereo not drawn)	inactive: 0.71%
COc1ccc(OP(C)(=O)Nc2ccc(Br)cc2)cc1 (stereo not drawn)	inactive: 0.44%
CCN(CC)CC(O)COC(=O)C(O)(c1ccccc1)C1CCCCC1 (stereo not drawn)	inactive: -0.28%

Compound	inhibition
CCc1ccc(OP(C)(=O)Nc2cccnc2)cc1 (stereo not drawn)	inactive: 0.6%
CP(=O)(Oc1ccccc1)N1CCOC1=O (stereo not drawn)	inactive: 0.57%
O=C(OCCCN1CCCC1)C(O)(c1ccccc1)C1CCCCC1 (stereo not drawn)	inactive: -0.88%
COc1ccccc1OP(C)(=O)Nc1c(C)n(C)n(-c2ccccc2)c1=O (stereo not drawn)	inactive: 0.67%
CP(=O)(Nc1ccc(Cl)cc1)Oc1ccc(F)cc1 (stereo not drawn)	inactive: -0.01%
COc1ccccc1OP(C)(=O)Nc1ccccc1Br (stereo not drawn)	inactive: 0.85%
CC(C)(C)c1ccc(OP(C)(=O)O)cc1	inactive: 1.38%
CN(C)C(=O)c1c([N+](=O)[O-])cc([N+](=O)[O-])cc1[N+](=O)[O-]	inactive: 1.11%
COc1ccccc1OP(C)(=O)Nc1ccc(Br)cc1 (stereo not drawn)	inactive: 0.02%
CN(C)CCOC(=O)C(O)(c1ccccc1)C1CCCC1 (stereo not drawn)	inactive: 0.25%
COc1ccc(OP(C)(=O)Nc2ccccn2)cc1 (stereo not drawn)	inactive: 0.18%
Cc1c(NP(C)(=O)Oc2ccc(C(C)C)cc2)c(=O)n(-c2ccccc2)n1C (stereo not drawn)	inactive: 0.55%
O=[N+]([O-])c1cc([N+](=O)[O-])c(Nc2ccccn2)c([N+](=O)[O-])c1	inactive: 0.28%
CCc1ccc(OP(C)(=O)O)cc1	inactive: 1.08%
COc1ccccc1OP(C)(=O)Nc1ccc(C)cc1C (stereo not drawn)	inactive: 0.26%
CP(=O)(Nc1ccccn1)Oc1ccccc1 (stereo not drawn)	inactive: 0.11%
Cc1cc(C)cc(OP(C)(=O)Nc2cccc(C(F)(F)F)c2)c1 (stereo not drawn)	inactive: -0.23%
COc1ccc(OP(C)(=O)Nc2ccccc2Br)cc1 (stereo not drawn)	inactive: 0.69%
COc1ccccc1OP(C)(=O)Nc1ccc(C)c(C)c1 (stereo not drawn)	inactive: -0.22%
Cc1nc2ccc3ccccc3c2o1.O=[N+]([O-])c1cc([N+](=O)[O-])c(O)c([N+](=O)[O-])c1	inactive: 1.47%
CP(=O)(Nc1ccc(Cl)cc1Cl)Oc1ccccc1 (stereo not drawn)	inactive: 0.78%

Compound	inhibition
CP(=O)(OCCOc1ccccc1)OCCOc1ccccc1	inactive: 1.41%
COc1ccc(OP(C)(=O)Nc2ccc(SC(F)(F)F)cc2)cc1 (stereo not drawn)	inactive: 0.07%
CCOC(=O)c1ccc(NP(C)(=O)Oc2ccc(F)cc2)cc1 (stereo not drawn)	inactive: -0.75%
CCN(CC)CCCOC(=O)C(O)(c1ccccc1)C1CCCCC1 (stereo not drawn)	inactive: -0.67%
CCCCCOc1ccc(NP(C)(=O)Oc2ccc(Cl)cc2Cl)cc1 (stereo not drawn)	inactive: 1.15%
CP(=O)(Nc1ccccc1)Oc1ccc(F)cc1 (stereo not drawn)	inactive: 1.07%
CC(C)c1ccc(OP(C)(=O)Nc2ccc(SC(F)(F)F)cc2)cc1 (stereo not drawn)	inactive: 1.03%
CP(=O)(Nc1ccccc1F)Oc1ccccc1 (stereo not drawn)	inactive: 0.98%
O=C(OCCN1CCN(CCOCc2ccccc2)CC1)C(O)(c1ccccc1)c1ccccc1	inactive: -0.36%
O=C(OC1CN2CCC1CC2)c1ccc([N+](=O)[O-])cc1 (stereo not drawn)	inactive: 1.04%
CP(=O)(Nc1ccc(SC(F)(F)F)cc1)Oc1ccc(F)cc1 (stereo not drawn)	inactive: 1.18%
CCOP(C)(=S)SCC(=O)NC(C)(CC)C(=O)O (stereo not drawn)	inactive: 0.79%
CP(=O)(Nc1ccc2c(c1)OCCO2)Oc1ccccc1 (stereo not drawn)	inactive: 0.3%
Cc1ccccc1NP(C)(=O)Nc1ccccc1C	inactive: 0.47%
COc1ccc(OP(C)(=O)Nc2cccc(Br)c2)cc1 (stereo not drawn)	inactive: 1.22%
COc1ccc(NP(C)(=O)Oc2ccccc2OC)cc1 (stereo not drawn)	inactive: -0.17%
CN(C)CCOC(=O)C(O)(c1ccccc1)C1CCCCC1 (stereo not drawn)	inactive: 0.25%
O=[N+]([O-])c1cc([N+](=O)[O-])c(NCC2CCS(=O)(=O)C2)c([N+](=O)[O-])c1 (stereo not drawn)	inactive: 0.84%
Cc1cc(-c2cccc3ccccc23)c(C)cn1.O=[N+]([O-])c1cc([N+](=O)[O-])c(O)c([N+](=O)[O-])c1	inactive: 2.09%
O=[N+]([O-])c1ccc(OP2(=O)COCCO2)cc1 (stereo not drawn)	inactive: 0.5%
